Values quoted from earlier work in publication PMC4641155, “Characterization of [^99mTc]Duramycin as a SPECT Imaging Agent for Early Assessment of Tumor Apoptosis” (Molecular Imaging and Biology, 2015).

Settings: read-out: Kd for binding to PE; cited from earlier work
Method: Duramycin is a 19-amino acid peptide that recognizes both apoptotic and necrotic cells by binding to PE with high affinity (Kd ∼ 5 nM) and specificity. The low molecular weight (MW) of duramycin (∼2 kDa) confers this tracer with favorable pharmacokinetics and biodistribution properties for in vivo imaging of apoptosis. [^99mTc]Duramycin has been successfully used as a probe for the imaging of cell death in animal models of cerebral and myocardial ischemia–reperfusion, accumulating in tissue sites of injury where there is high apoptotic activity. Additionally, ...

Duramycin
Kd: ~5 nM
